Biological target: 15-PGDH (Homo sapiens (Human), UniProt P15428)
Assay: Detection of activity of 15-PGDH enzyme
Conditions: inhibitory activity against 15-PGDH enzyme; substrates β-NAD and PGF2α; fluorescence Ex/Em=340/450
Procedure: • a. A solution of pH 7.5 containing 50 mM Tris-HCl, 0.01% Tween 20 was prepared with ultrapure water as a reaction buffer; • b. A 10 mM mother liquor of the compound to be tested was prepared with DMSO, and then the reaction buffer was used to dilute the mother liquor of the compound to be tested to obtain solution 1 of the compound to be tested at a concentration of 40,000 nM, and then the solution 1 of the compound to be tested was serially diluted into solutions 2-9 (or 2-12) of the compound to be tested at 9 (or 11) concentrations with a gradient difference of three-fold. 5 μL of each concentration of solutions of the compound to be tested was respectively taken and added into a 384-well plate as test wells; • c. 5 μL of the reaction buffer was then added to the blank wells of the 384-well plate as positive control and blank control wells, respectively; • d. The reaction buffer was used to prepare a 15-PGDH protein solution at a concentration of 5 ng/μL, 5 μL of the 15-PGDH protein solution was taken and added to the test wells and positive control wells, and meanwhile 5 μL of the reaction buffer was added to the blank control wells, then the plate was centrifuged at 2000 rpm for 30 seconds; • e. […] The fluorescence signal value (Ex/Em=340/450) of each well was detected continuously by using a multifunctional microplate reader. […]

Amino acid sequences for entries named in this document (tags omitted).
UniProt P15428, whole entry: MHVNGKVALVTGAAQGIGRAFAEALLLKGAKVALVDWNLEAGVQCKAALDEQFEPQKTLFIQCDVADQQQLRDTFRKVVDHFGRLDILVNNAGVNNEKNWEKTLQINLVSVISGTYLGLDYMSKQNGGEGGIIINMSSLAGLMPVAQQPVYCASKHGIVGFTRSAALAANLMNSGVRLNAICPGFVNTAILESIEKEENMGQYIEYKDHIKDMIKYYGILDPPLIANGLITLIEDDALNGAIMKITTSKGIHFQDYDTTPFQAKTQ

**Q.** `N#Cc1c(C(=O)N2CCCCC2)sc2nc(-c3cccnc3)cnc12` was tested. Which IC50 did it give?
**A.** 10 to 20 nM
